{"sequences": {"note": "Protein sequences, listed by entry. Tags and fused reporters are not part of them.", "UniProt Q5T2D3, whole entry": "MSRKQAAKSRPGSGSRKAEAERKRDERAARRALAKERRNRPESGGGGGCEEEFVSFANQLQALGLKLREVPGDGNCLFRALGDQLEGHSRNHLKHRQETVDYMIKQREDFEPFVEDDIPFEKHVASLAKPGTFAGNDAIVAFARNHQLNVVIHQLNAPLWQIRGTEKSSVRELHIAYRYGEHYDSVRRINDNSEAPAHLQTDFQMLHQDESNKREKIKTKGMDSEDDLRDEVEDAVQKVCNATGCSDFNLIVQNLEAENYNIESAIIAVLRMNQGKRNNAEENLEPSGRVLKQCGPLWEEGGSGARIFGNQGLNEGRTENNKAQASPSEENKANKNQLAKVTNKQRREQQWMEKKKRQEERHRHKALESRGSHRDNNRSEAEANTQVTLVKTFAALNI"}, "source": "PubChem BioAssay AID1645858", "about": "(Buhrlage Lab, Dana-Farber Cancer Institute and Novartis …, 2021)", "note": "This is a selection; strong and weak results do not stand in their true shares. Active and inactive are the calls of the source. Cut-off read from the data, not from the text of the source: active = inhibition above about 30%; inactive = the rest.", "data": [{"target": "OTU domain-containing protein 3 (Homo sapiens) (UniProt Q5T2D3)", "experiment": "inhibitors of human OTUD3 deubiquitinase (AID 1645858)", "conditions": "purified OTUD3, Ub-rhodamine fluorescence, 2 h; at 25 µM; stronger effect = higher value", "values": [{"smiles": "O=C(NCC1(N2CCCCC2)CCCCC1)c1ccc2ncsc2c1", "inhibition": "inactive: -8.57%"}, {"smiles": "Cc1ccccc1C(=O)NCC1(N2CCOCC2)CCCCC1", "inhibition": "inactive: -9.67%"}, {"smiles": "Cc1cc(C(=O)NCC2(N3CCOCC3)CCCCC2)c2ccccc2n1", "inhibition": "inactive: 10.1%"}, {"smiles": "O=C(NCC1(N2CCOCC2)CCCCC1)c1ccccc1Cl", "inhibition": "inactive: -6.77%"}, {"smiles": "O=C(NCC1(N2CCCCC2)CCCCC1)c1ccc(F)cc1", "inhibition": "inactive: -42.8%"}, {"smiles": "CC1CN(CCc2ccccc2)CCC1=O", "note": "(stereo not drawn)", "inhibition": "inactive: 8.21%"}, {"smiles": "CN(C)c1ccc(C(=O)NCC2(N3CCCCC3)CCCCC2)cc1", "inhibition": "inactive: -1.96%"}, {"smiles": "N#Cc1ccc(C(=O)NCC2(N3CCCCC3)CCCCC2)cc1", "inhibition": "inactive: -11.3%"}]}]}
